Amino acid sequences for entries named in this document (tags omitted). Residues count along the entry.
UniProt P62993, whole entry: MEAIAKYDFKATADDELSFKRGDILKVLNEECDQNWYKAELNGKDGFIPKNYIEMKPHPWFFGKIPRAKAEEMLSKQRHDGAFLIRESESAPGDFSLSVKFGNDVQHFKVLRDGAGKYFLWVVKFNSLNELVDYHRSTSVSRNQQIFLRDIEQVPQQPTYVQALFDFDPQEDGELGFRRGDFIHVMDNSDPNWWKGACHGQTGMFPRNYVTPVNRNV
UniProt P62993, 60-152 limits assumed: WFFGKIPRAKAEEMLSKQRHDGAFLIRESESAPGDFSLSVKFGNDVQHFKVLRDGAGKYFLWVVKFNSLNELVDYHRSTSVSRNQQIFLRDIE

According to patent publication US6307090A:

Key:
[1] = molecular target: Grb2 SH2 domain (Homo sapiens, UniProt P62993); test: Grb2 SH2 domain binding by surface plasmon resonance (solution IC50, competition with immobilized SHC phosphopeptide); conditions: for Grb2 SH2 domain binding affinity (in words): surface plasmon resonance, FIGS. 1 and 2
Description: In order to examine pTyr mimetics in the context of Grb2 SH2 inhibitors, the recently disclosed high affinity pTyr-containing tripeptide 18b^53 was chosen as a model platform on which to append phosphotyrosyl-mimeticking analogues. A series of new inhibitors 18c-f and 20d and 20f incorporating pTyr mimetics 15c-f was prepared and Grb2 SH2 domain binding affinities were determined by surface plasmon reasonance (FIGS. 1 and 2).^72,73 The linear Shc(Y317) peptide D-D-P-S-pY-V-N-V-Q(24) was employed as a reference, and gave an IC50 of 1.3 μM in this system. […] The importance of the "phosphate pharmacophore" to the overall binding of 18b was confirmed by the loss of all measureable binding affinity upon removal of the phosphate group (compound 18a).
SH2 domain using Surface Plasmon Resonance (SPR). The methods used were designed to measure a solution IC50 for peptide inhibition of the Grb2 SH2 domain. The approach minimizes the "left shift" encountered in SPR experiments that is observed when binding equilibrium constants are determined from association and dissociation rates at the SPR surface. In this study the SPR serves simply as a detector of free Grb2 in solution. The IC50 values are determined by mixing peptide with recombinant Grb2 or Grb2 SH2 domains and then measuring the amount of binding at equilibrium to the immobilized SHC phosphopeptide. The methods were essentially as previously described for the quantitative comparison of binding constants for the binding of other SH2 domains with phosphopeptides in solution.^72 In our experiments the immobilized phase was generated using SHC phosphopeptide, biotin-DDPSpYVNVQ (Quality Controlled Biochemicals, QCB), >90% purity by C18 HPLC and of the appropriate molecular weight (1453) by mass spectrometry. This peptide was attached to SA5 chips at 2 nM. […]

[2] = molecular target: interaction of native Grb2 with p185^erbB-2 in MDA-MB-453 cell lysates (Homo sapiens, UniProt P62993); test: Inhibition of Grb2 SH2 domain binding in cell extracts (Grb2 immunoprecipitation, anti-phosphotyrosine western blot); conditions: 30 minutes incubation, FIG. 4
Text: (§1) Data in FIGS. 1 and 2 reflect inhibition measured in isolater] Grb2 SH2 domain protein relative to a reference phopsho-Shc(Y317) peptide. In physiological contexts however, Grb2 SH2 domains exist as part of larger Grb2 proteins which bind to pTyr-containing ligands are themselves protein in nature. In order to examine the ability of synthetic analogues to inhibit the interaction of native Grb2 with p185^erbB-2 two assays were used, one in which they were introduced directly into cell lysates and one of which required the compounds to cross membranes of intact cells. In both cases, MDA-MB-453 cells were utilized. These cells are derived from a human breast cancer where there is amplification of erbB-2 gene and resultant overexpression of mRNA and protein. […] Consistent with plasmon reasonace binding data (FIGS. 1 and 2) the level of inhibition is somewhat higher for 18c as compared to 20f.
Inhibition of Grb2 SH2 domain binding in cell extracts. […] Grb2 and associated Grb2-binding proteins were immunoprecipitated from each lysate (5 mg) with anti-Grb2 antibodies and collected using protein A sepharose using methods previously described.^67 Immunoprecipitated proteins were separated by SDS PAGE on 8-16% gradient gels (Novagen). pTyr containing proteins were detected by Western blotting using anti-phosphotyrosine antibodies (Upstate Biochemicals Inc.). […]

[3] = molecular target: intracellular Grb2 interaction with p185^erbB-2 in MDA-MB-453 cells (Homo sapiens, UniProt P62993); test: Inhibition of Grb2 SH2 domain binding in whole cells (MDA-MB-453); conditions: intact MDA-MB-453 cells, 3 hours in serum free media, up to 50 μM, FIG. 5
Text: as §1
Compounds were also examined in a whole cell assay in which inhibition of intracellular Grb2 binding was measured following application of compounds to the media of MDA-MB-453 cells. […]
Inhibition of Grb2 SH2 domain binding in whole cells. […] To determine the amount of phosphotyrosine bound p185^erbB-2cells were then treated as described described above; cells were lysed Grb2 was immunoprecipitated and phosphotyrosine containing proteins were detected using immunoblotting and anti-phosphotyrosine antibody.

SMILES	Grb2 SH2 domain binding affinity (in words) [1]	reduction of p185^erbB-2 bound to Grb2 in cell lysates [2]	enhancement in binding affinity by Nα-oxalyl group (20f relative to 18f) ([1]; surface plasmon resonance IC50 ratio)	inhibition of intracellular Grb2 interaction with p185^erbB-2 [3]
CC(=O)N[C@@H](Cc1ccc(OCC(=O)O)c(C(=O)O)c1)C(=O)NC1(C(=O)N[C@@H](CC(N)=O)C(=O)NCCCc2cccc3ccccc23)CCCCC1	low micromolar affinity	measurable loss of potency		
NC(=O)C[C@H](NC(=O)C1(NC(=O)[C@H](Cc2ccc(OCC(=O)O)c(C(=O)O)c2)NC(=O)C(=O)O)CCCCC1)C(=O)NCCCc1cccc2ccccc12	low micromolar affinity	clear dose-dependent reduction	five-fold enhancement in affinity	able to inhibit Grb2 interaction with p185^erbB-2
